Assay results from patent publication US5847088A, “Antibodies specific for platelet-activating factor acetylhydrolase” (ICOS Corporation, priority 1995, dated 1998).

Tested on: low and high density lipoproteins

B1: PAF-AH: Recombinant human plasma platelet-activating factor acetylhydrolase (beginning at Ile42 of SEQ ID NO:8) expressed in E. coli (protein, UniProt Q13093 22-441, looked up)
Platelet-activating factor …: FDWQYINPVAHMKSSAWVNKIQVLMAAASFGQTKIPRGNGPYSVGCTDLMFDHTNKGTFLRLYYPSQDNDRLDTLWIPNKEYFWGLSKFLGTHWLMGNILRLLFGSMTTPANWNSPLRPGEKYPLVVFSHGLGAFRTLYSAIGIDLASHGFIVAAVEHRDRSASATYYFKDQSAAEIGDKSWLYLRTLKQEEETHIRNEQVRQRAKECSQALSLILDIDHGKPVKNALDLKFDMEQLKDSIDREKIAVIGHSFGGATVIQTLSEDQRFRCGIALDAWMFPLGDEVYSRIPQPLFFINSEYFQYPANIIKMKKCYSPDKERKMITIRGSVHQNFADFTFATGKIIGHMLKLKGDIDSNVAIDLSNKASLAFLQKHLGLHKDFDQWDCLIEGDDENLIPGTNINTTNQHIMLQNSSGIEKYN
  association with lipoproteins: associated with low and high density lipoproteins in the same manner as the native activity
